The Kinase Knowledgebase extract (Sharma et al. 2016)

By UniProt entry, the sequences of proteins in these tests, tags left out.
UniProt P00533, whole entry, looked up: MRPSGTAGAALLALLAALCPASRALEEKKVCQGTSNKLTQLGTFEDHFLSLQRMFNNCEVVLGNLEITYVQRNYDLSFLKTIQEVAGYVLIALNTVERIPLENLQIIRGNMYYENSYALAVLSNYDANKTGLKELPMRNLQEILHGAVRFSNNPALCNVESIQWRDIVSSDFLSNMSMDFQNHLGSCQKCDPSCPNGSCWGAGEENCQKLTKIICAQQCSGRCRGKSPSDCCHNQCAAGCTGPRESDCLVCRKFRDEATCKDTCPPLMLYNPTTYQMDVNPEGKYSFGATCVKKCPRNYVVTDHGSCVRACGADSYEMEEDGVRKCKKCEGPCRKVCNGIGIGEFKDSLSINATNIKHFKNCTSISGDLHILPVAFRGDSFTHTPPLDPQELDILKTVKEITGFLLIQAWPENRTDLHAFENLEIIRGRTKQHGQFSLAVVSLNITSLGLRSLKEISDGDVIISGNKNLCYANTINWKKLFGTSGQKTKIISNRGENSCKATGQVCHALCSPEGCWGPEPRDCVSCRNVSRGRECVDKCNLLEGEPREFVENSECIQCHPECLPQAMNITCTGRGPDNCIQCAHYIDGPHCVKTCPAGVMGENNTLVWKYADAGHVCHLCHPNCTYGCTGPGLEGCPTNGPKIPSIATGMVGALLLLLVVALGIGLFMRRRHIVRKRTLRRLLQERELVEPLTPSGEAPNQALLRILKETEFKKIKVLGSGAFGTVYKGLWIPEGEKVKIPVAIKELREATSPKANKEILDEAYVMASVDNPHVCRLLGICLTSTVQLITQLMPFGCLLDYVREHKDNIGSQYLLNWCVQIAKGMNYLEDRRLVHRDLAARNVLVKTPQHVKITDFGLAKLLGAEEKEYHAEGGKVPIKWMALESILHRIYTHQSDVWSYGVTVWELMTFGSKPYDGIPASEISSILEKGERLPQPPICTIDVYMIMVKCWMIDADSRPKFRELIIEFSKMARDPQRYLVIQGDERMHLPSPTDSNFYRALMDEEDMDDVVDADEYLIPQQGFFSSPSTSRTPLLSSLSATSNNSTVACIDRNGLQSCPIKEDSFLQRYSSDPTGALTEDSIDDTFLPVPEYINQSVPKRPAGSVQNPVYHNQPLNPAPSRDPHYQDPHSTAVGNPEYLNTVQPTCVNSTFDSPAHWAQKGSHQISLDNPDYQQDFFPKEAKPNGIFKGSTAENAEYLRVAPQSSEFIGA

Columns and labels:
EGFR (human) [1] = target: EGFR (human) (UniProt P00533); settings: A431
EGFR (human) [2] = target: EGFR (human) (UniProt P00533); settings: a431
EGFR (human) [3] = target: EGFR (human) (UniProt P00533); settings: a431; remark: listed apart in the source

SMILES: COc1cc2ncnc(Nc3cccc(Cl)c3)c2cc1OC
- IC50 (EGFR (human) [1]): 2.7 nM
- IC50 (EGFR (human) [2]): 90 nM
- IC50 (EGFR (human) [3]): 5.1 µM
